We go through ten compounds from patent US11168075B2, “Compounds and their use for reducing uric acid levels” (Acquist LLC, priority 2016, dated 2021).

Protein sequences, listed by entry. Tags and fused reporters are not part of them. Lines headed by an entry give the natural chain unless they say otherwise; changes in a name come on top.
UniProt Q96S37: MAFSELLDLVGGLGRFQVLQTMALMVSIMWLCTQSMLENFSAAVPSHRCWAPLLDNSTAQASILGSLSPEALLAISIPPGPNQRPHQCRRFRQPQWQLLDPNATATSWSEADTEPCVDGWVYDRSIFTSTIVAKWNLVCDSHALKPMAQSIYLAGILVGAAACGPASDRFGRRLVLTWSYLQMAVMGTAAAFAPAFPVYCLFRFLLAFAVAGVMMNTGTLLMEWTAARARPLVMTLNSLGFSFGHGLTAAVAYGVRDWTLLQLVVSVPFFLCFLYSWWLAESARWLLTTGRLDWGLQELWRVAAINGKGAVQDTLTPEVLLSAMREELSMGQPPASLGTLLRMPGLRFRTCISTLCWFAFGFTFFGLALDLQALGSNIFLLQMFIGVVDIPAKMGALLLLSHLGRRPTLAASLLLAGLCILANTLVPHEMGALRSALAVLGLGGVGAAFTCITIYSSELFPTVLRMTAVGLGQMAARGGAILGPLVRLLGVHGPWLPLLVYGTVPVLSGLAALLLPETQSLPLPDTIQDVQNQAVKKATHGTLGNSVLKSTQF

Where only a bound is given, the exact number is not on record here.

The first assay deals with T1, URAT1 (SLC22A12) (Homo sapiens (Human), UniProt Q96S37).
Test: not given
The conditions noted are these: statement in words.
As to `CC(C)Sc1nc(O)c(C(=O)Nc2ccc(-c3c[nH]nn3)cc2)c(=O)[nH]1` [Formula (IId), N-(4-(1H-1,2,3-triazol-5-yl)phenyl)-4-hydroxy-2-(isopropylthio)-6-oxo-1,6-dihydropyrimidine-5-carboxamide], the “bifunctional inhibition (URAT1 and xanthine oxidase)” value is given as “particularly effective bifunctional inhibitor”.

The target in another assay is T1, URAT1 (SLC22A12). Put plainly: cell-based.
Conditions: not given
Take `COc1nc(O)c(C(=O)Nc2ccc(-c3cnn[nH]3)cc2)c(=O)[nH]1` [Formula (IIb), N-(4-(3H-1,2,3-triazol-4-yl)phenyl)-4-hydroxy-2-methoxy-6-oxo-1,6-dihydropyrimidine-5-carboxamide]: it took 12.1 µM to reach half-maximal inhibition (IC50).

Consider `N=C(Nc1ccc(-c2c[nH]nn2)cc1)c1c(O)[nH]c(=O)[nH]c1=O` [Formula (Ia), N-(4-(1H-1,2,3-triazol-4-yl)phenyl)-6-hydroxy-2,4-dioxo-1,2,3,4-tetrahydropyrimidine-5-carboximidamide], for which the IC50 (commonly the concentration that gives 50% inhibition) was more than 4.8 µM. In the case of `O=c1[nH]c(O)c(/C(=N\O)Nc2ccc(-c3cnn[nH]3)cc2)c(=O)[nH]1` [Formula (Ic), (E)-N-(4-(1H-1,2,3-triazol-5-yl)phenyl)-N′-hydroxy-2,4,6-trioxohexahydro-pyrimidine-5-carboximidamide], the IC50 is more than 150 µM. On the same count and under the same terms, in the case of `Cn1c(O)c(C(=O)Nc2ccc(-c3c[nH]nn3)cc2)c(=O)n(C)c1=O` [Formula (Ie), N-(4-(1H-1,2,3-triazol-4-yl)phenyl)-6-hydroxy-1,3-dimethyl-2,4-dioxo-1,2,3,4-tetrahydropyrimidine-5-carboxamide] it was more than 37.5 µM.

In the case of `Cn1c(O)c(C(=N)Nc2ccc(-c3cnn[nH]3)cc2)c(=O)n(C)c1=O` [Formula (If), N-(4-(1H-1,2,3-triazol-5-yl)phenyl)-6-hydroxy-1,3-dimethyl-2,4-dioxo-1,2,3,4-tetrahydropyrimidine-5-carboximidamide], the concentration for half-maximal inhibition (IC50) is more than 9 µM. As to `Cn1c(O)nc(O)c(C(=O)Nc2ccc(-c3c[nH]nn3)cc2)c1=O` [Formula (Ig), N-(4-(1H-1,2,3-triazol-4-yl)phenyl)-2,4-dihydroxy-1-methyl-6-oxo-1,6-dihydropyrimidine-5-carboxamide], the IC50 is more than 150 µM. On the same count and under the same terms, in the case of `Cn1c(=O)[nH]c(O)c(C(=N)Nc2ccc(-c3cnn[nH]3)cc2)c1=O` [Formula (Ih)] it was more than 18.8 µM. `O=c1[nH]c(=O)c2c(Nc3ccc(-c4cnn[nH]4)cc3)noc2[nH]1` [Formula (VIa), 3-((4-(1H-1,2,3-triazol-5-yl)phenyl)amino)isoxazolo[5,4-d]pyrimidine-4,6(5H,7H)-dione] yielded an IC50 of more than 37.5 µM. In turn, `O=c1[nH]c(=O)c2c(Nc3ccc(-c4cnn[nH]4)cc3)n[nH]c2[nH]1` [Formula (VIb), 3-((4-(1H-1,2,3-triazol-5-yl)phenyl)amino)-1H-pyrazolo[3,4-d]pyrimidine-4,6(5H,7H)-dione] registered an IC50 of more than 27 µM.
